Experimental findings from patent publication US20250195530A1, “POLQ INHIBITORS” (ASTRAZENECA AB, priority 2022, published 2025) are described below.

Protein sequences, listed by entry. Tags and fused reporters are not part of them. Residues count along the entry.
UniProt O75417, 1780-2590: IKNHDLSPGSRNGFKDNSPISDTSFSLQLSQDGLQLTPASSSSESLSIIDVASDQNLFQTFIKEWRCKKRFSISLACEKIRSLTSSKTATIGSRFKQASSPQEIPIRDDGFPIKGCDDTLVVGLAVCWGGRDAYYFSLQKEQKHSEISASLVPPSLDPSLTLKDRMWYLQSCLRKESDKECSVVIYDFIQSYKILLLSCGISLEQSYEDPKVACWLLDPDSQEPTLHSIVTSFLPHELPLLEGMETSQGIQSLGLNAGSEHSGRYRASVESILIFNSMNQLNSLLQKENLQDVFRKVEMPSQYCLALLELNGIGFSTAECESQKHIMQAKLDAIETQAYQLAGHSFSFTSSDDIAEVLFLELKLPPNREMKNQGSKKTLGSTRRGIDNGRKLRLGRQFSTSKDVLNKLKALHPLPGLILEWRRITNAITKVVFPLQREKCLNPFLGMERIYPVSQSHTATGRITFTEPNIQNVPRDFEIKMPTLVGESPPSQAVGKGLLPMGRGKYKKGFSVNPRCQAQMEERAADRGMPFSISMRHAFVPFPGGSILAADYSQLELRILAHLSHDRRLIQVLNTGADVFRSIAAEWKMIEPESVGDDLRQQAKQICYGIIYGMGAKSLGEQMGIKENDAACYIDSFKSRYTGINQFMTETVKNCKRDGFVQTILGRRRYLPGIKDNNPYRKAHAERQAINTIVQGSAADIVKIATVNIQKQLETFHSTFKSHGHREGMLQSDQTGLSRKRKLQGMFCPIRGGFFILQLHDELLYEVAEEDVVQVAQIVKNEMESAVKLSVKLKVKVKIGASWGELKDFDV

This test has as its target isolated polymerase domain (I1780-V2590) of DNA polymerase theta (Polθ) (Homo sapiens (Human), UniProt O75417). As to the kind of experiment: biochemical.

One may read the IC50 as the point on the concentration scale where inhibition reaches its midpoint. A higher IC50 goes with lower potency. In turn, `CC(CCCc1ccc(-c2nc3c(OC4(C)CC4)ncnc3n2Cc2cccc(Cl)c2)c(Cl)c1)C(=O)O` (racemic) [Example T434, 5-(3-chloro-4-(9-(3-chlorobenzyl)-6-(1-methylcyclopropoxy)-9H-purin-8-yl)phenyl)-2-methylpentanoic acid] gave an IC50 of 7.94 nM.

Compound `CCC(CCOc1ccc(-c2nc3c(OC4(C)CC4)ncnc3n2Cc2cccc(Cl)c2)c(Cl)c1)C(=O)O` (racemic) [Example T441, 4-(3-chloro-4-(9-(3-chlorobenzyl)-6-(1-methylcyclopropoxy)-9H-purin-8-yl)phenoxy)-2-ethylbutanoic acid] had an IC50 of 7.94 nM.

Compound `COc1cccc(Cn2c(-c3ccc(OCCC(C)C(=O)O)cc3Cl)nc3c(OC4(C)CC4)ncnc32)c1` (racemic) [Example T454, 4-(3-chloro-4-(9-(3-methoxybenzyl)-6-(1-methylcyclopropoxy)-9H-purin-8-yl)phenoxy)-2-methylbutanoic acid] gave an IC50 of 3.98 nM.

For the compound `Cc1ccnc(Cn2c(-c3ccc(N4CC5CC4CCN5)cc3Cl)nc3c(OC4(C)CC4)ncnc32)c1` (racemic) [Example T491, 8-(4-(2,6-diazabicyclo[3.2.1]octan-6-yl)-2-chlorophenyl)-6-(1-methylcyclopropoxy)-9-((4-methylpyridin-2-yl)methyl)-9H-purine], the IC50 is 6.31 nM.

Consider `Cc1ccnc(Cn2c(-c3ccc(N4CCN5CCC4C5)cc3Cl)nc3c(OC4(C)CC4)ncnc32)c1` (racemic) [Example T493, 8-(4-(1,4-diazabicyclo[3.2.1]octan-4-yl)-2-chlorophenyl)-6-(1-methylcyclopropoxy)-9-((4-methylpyridin-2-yl)methyl)-9H-purine], for which it took 5.01 nM to reach half-maximal inhibition (IC50).

As for `CC(CCOc1ccc(-c2nc3c(OC4(C)CC4)ncnc3n2Cc2cc(C(F)(F)F)cc(C(F)(F)F)c2)c(Cl)c1)C(=O)O` (racemic) [Example T533, 4-(4-(9-(3,5-bis(trifluoromethyl)benzyl)-6-(1-methylcyclopropoxy)-9H-purin-8-yl)-3-chlorophenoxy)-2-methylbutanoic acid], the IC50 was 7.94 nM.

As to `CC(CCOc1ccc(-c2nc3c(OC4(C)CC4)ncnc3n2Cc2cccc(C(C)(F)F)c2)c(Cl)c1)C(=O)O` (racemic) [Example T544, 4-(3-chloro-4-(9-(3-(1,1-difluoroethyl)benzyl)-6-(1-methylcyclopropoxy)-9H-purin-8-yl)phenoxy)-2-methylbutanoic acid], the IC50 is 2.51 nM.

Turning to `CC(C)C(CCOc1ccc(-c2nc3c(OC4(C)CC4)ncnc3n2Cc2cccc(Cl)c2)c(Cl)c1)C(=O)O` (racemic) [Example T566, 4-(3-chloro-4-(9-(3-chlorobenzyl)-6-(1-methylcyclopropoxy)-9H-purin-8-yl)phenoxy)-2-isopropylbutanoic acid], inhibition was half-maximal at 3.98 nM (IC50).

Regarding `Cc1ccc(C)c(Cn2c(-c3ccc(OCCC(C)C(=O)O)cc3Cl)nc3c(OC4(C)CC4)ncnc32)c1` (racemic) [Example T569, 4-(3-chloro-4-(9-(2,5-dimethylbenzyl)-6-(1-methylcyclopropoxy)-9H-purin-8-yl)phenoxy)-2-methylbutanoic acid], it took 5.01 nM to reach half-maximal inhibition (IC50).

For the compound `Cc1cccc(Cn2c(-c3ccc(OCCC(C)C(=O)O)cc3Cl)nc3c(OC4(C)CC4)ncnc32)c1C` (racemic) [Example T570, 4-(3-chloro-4-(9-(2,3-dimethylbenzyl)-6-(1-methylcyclopropoxy)-9H-purin-8-yl)phenoxy)-2-methylbutanoic acid], it took 5.01 nM to reach half-maximal inhibition (IC50).

In turn, `Cc1cccc(C)c1Cn1c(-c2ccc(OCCC(C)C(=O)O)cc2Cl)nc2c(OC3(C)CC3)ncnc21` (racemic) [Example T571, 4-(3-chloro-4-(9-(2,6-dimethylbenzyl)-6-(1-methylcyclopropoxy)-9H-purin-8-yl)phenoxy)-2-methylbutanoic acid] showed an IC50 of 7.94 nM.
